Results published in US5869526A, “δ-(S-methylisothioureido)-L-norvaline therapeutic for cerebrovascular diseases having nitric oxide synthase inhibiting factor” (priority 1994, dated 1999).
Where two headings read alike, the source gives them in different places. Blank lines part the entries; values can stand above or below the compound they belong to.

Legend:
N-cNOS = molecular target: T1, N-cNOS (Rattus norvegicus, UniProt P29476); assay: Inhibition of N-cNOS activity, L-[3H]arginine to L-[3H]citrulline conversion (rat cerebral cortex cytosol); assay type: biochemical; settings: rat cerebral cortex soluble cytosolic fraction; 100 nM L-[3H]arginine, 37° C., 10 min; mean±standard error, n in parentheses; read-out: IC50 values, N-cNOS (Brain cytosol)
T1 construct: a soluble cytosolic fraction of the finally obtained supernate was used as the crude enzyme sample of N-cNOS; from tissue; host or cells: cerebral cortex of normal untreated male Sprague-Dawley rats, 100,000×g cytosolic supernatant

E-cNOS = molecular target: T2, E-cNOS (Bos taurus, UniProt P29473); assay: Inhibition of E-cNOS activity, L-[3H]arginine to L-[3H]citrulline conversion (CPAE homogenate); assay type: biochemical, cow
T2 construct: the mixture was homogenized for 3 min to yield the crude enzyme sample of E-cNOS; endogenous in cells; host or cells: CPAE (cow pulmonary arterial endothelium) cells, whole homogenate
Method: The compound of Example 1 was evaluated for its inhibitory action against N-cNOS and E-cNOS in comparison with previously reported NOS inhibitors.
A crude enzyme sample of N-cNOS was a soluble cytosolic fraction of the rat cerebral cortex whereas a crude enzyme sample of E-cNOS was a homogenate of cow pulmonary arterial endothelium (CPAE) strain.
The crude enzyme sample of E-cNOS was prepared by the following procedure. CPAE was cultured in a MEM medium containing 20% of FBS. Several days later, the cells were detached from the flask using a solution of 0.25% trypsin containing 1 mM EDTA in 0.1M phosphate-buffered saline (PBS; pH 7.4) and centrifuged at 1,000 rpm for 5 min. […]
The method of measuring the NOS activity was basically the same as already reported by the present inventors and consisted of determining quantitatively the conversion of a substrate L-[^3 H] arginine to a reaction product L-[^3 H] citrulline [Brain Edema IX (Ito et al. eds.) 60, pp. 285-288, 1994, Acta Neurochir., Springer-Verlag]. […]
The reaction was started by adding L-[^3 H] arginine to the reaction solution and the mixture was incubated at 37° C. for 10 min. […] Thereafter, 5 ml of a scintillation fluid was added and the contained radioactivity was measured with a liquid scintillation counter to determine the amount of L-[^3 H] citrulline. […]

IC50 (N-cNOS): 277 ± 58.7 nM
Structure (SMILES): CC(=N)NCCC[C@H](N)C(=O)O [L-NIO, N^G -iminoethyl-ornithine, reference compound]

Structure (SMILES): CNC(=N)NCCC[C@H](N)C(=O)O [L-NMMA, N^G -monomethyl-L-arginine]
IC50 (E-cNOS): 951 ± 232 nM

Structure (SMILES): N=C(NCCC[C@H](N)C(=O)O)N[N+](=O)[O-] [L-NNA, N^G -nitro-L-arginine]
IC50 (E-cNOS; cow pulmonary arterial endothelium homogenate, 100 nM L-[3H]arginine, 37° C., 10 min, mean±standard error, n in parentheses, read-out: IC50 values, E-cNOS (CPAE)): 89.8 ± 28.7 nM
